We go through one molecule from ChEMBL document CHEMBL5576121, “Halogen Bonding Hot Spots as a Constraint in Virtual Screening: A Case Study of 5-HT7R” (J Med Chem, 2024).

Sequences of proteins named here, by UniProt entry; tags and fusion partners are left off.
UniProt P34969, whole entry: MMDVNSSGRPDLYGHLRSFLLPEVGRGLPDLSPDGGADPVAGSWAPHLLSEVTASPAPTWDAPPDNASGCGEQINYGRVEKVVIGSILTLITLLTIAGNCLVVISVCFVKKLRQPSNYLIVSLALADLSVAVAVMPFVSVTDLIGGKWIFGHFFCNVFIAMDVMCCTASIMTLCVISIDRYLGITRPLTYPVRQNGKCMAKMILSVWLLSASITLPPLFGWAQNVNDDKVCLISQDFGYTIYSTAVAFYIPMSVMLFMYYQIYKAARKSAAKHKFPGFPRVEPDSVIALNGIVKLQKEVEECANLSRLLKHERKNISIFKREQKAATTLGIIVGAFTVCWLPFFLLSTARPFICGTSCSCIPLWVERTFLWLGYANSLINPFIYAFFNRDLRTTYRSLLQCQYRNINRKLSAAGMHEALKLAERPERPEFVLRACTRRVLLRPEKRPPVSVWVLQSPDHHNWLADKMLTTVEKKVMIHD

For the test, the target named is 5-hydroxytryptamine receptor 7 (Homo sapiens, UniProt P34969). Briefly: Displacement of [3H]-5-CT from human 5-HT7b receptor expressed in HEK293 cell membranes incubated for 1 hr by Microbeta Topcount instrument based analysis. The settings on record: Membrane. On the technique in general: Loss of bound radioactivity is the signal in a displacement assay; it reports binding, not function.

`CC1=C(CCN2CCN(c3cccc(Cl)c3)CC2)C(C)(C)CCC1` displayed a K of 47 nM.
